The results in this text go back to US12030897B2, “Pyrrolo[2,1-f][1,2,4]triazine derivatives serving as selective HER2 inhibitors and application thereof” (MEDSHINE DISCOVERY INC., priority 2018, dated 2024).

A word on the IC50: it is the concentration at which inhibition is half-maximal.

For the assay, the system named is NCI-N87 cell. In words: Cell proliferation inhibitory activity, Cell-Titer-Glo, NCI-N87. The settings on record: read-out: NCI-N87 cell IC50; 3 days incubation.

As to `Cc1cc(Nc2ncnn3ccc(CN4CC[C@H](N)[C@@H](F)C4)c23)ccc1Oc1ccn2ncnc2c1` (single isomer, unassigned) [Example 24], the IC50 is 7 nM.
With `Cc1cc(Nc2ncnn3ccc(CN4CC[C@H](N)[C@@H](F)C4)c23)ccc1Oc1ccn2ncnc2c1` (single isomer, unassigned) [Example 22], the half-inhibitory concentration (IC50) turned out to be 13 nM.
